Source: patent US11771702B2, “Agonists of PPAR-δ” (priority 2018, dated 2023)

The chains behind the UniProt entries cited, without tags or fusion partners. Where a name states a change or a piece, a line headed by the entry shows the natural chain unless it says otherwise. Residues count along the entry.
UniProt Q07869, 175-468 limits assumed: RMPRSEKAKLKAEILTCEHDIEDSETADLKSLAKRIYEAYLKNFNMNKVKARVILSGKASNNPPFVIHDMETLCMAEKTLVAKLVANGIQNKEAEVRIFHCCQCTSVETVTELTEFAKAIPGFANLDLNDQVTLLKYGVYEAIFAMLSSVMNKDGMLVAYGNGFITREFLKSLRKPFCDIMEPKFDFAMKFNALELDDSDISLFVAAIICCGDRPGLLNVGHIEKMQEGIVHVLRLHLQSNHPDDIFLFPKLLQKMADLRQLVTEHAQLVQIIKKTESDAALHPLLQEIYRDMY
UniProt Q03181, 147-441 limits assumed: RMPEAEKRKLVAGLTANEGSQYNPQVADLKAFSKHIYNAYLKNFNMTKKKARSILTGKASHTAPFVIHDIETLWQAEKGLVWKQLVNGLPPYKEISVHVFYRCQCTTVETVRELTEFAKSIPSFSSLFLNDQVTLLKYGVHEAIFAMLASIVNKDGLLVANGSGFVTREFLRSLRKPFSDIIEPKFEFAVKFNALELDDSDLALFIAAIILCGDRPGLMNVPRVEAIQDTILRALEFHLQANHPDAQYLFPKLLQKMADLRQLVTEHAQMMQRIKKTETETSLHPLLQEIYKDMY

The compounds below were run against PPAR-α (Homo sapiens, UniProt Q07869) (assay: GAL4-DBD/PPAR-LBD luciferase reporter agonist assay in HEK293T cells, PPAR-α). Conditions: not given.
Format: cell-based

agonist activity on PPAR-α | Compound
not active | O=C(O)C(=Cc1ccccc1OC(F)F)Sc1nnc(-c2ccc(F)cc2)o1

Each compound was assayed against PPAR-δ (Homo sapiens, UniProt Q03181) (assay: GAL4-DBD/PPAR-LBD luciferase reporter agonist assay in HEK293T cells, PPAR-δ). Conditions: not given.
Format: cell-based

agonist activity on PPAR-δ | Compound
not active | O=C(O)C(=Cc1ccccc1OC(F)F)Sc1nnc(-c2ccc(F)cc2)o1

Same assay, conditions: read-out: EC50 PPAR-δ; Table 5

EC50 [µM] | Compound
≥ 10 | Cc1ccc(OCCNC(C(=O)Nc2ccc([N+](=O)[O-])cc2Cl)c2ccccc2)cc1 (centres unmarked)
≥ 10 | OCCN1CCN(CC(O)COc2ccc(C34CC5CC(CC(C5)C3)C4)cc2)CC1 (centres unmarked)
≥ 10 | COc1ccc(C(=O)/C=C/c2cccc(C(F)(F)F)c2)cc1CSCC(=O)O
≥ 10 | O=C(O)C(=Cc1ccc(OC(F)F)cc1)Sc1nnc(-c2ccc(F)cc2)o1
≥ 10 | COc1ccc2cc(C(=O)NCCCCCCC(=O)O)ccc2c1
≥ 10 | OC(CN1CCC(CCCC2CCN(CC(O)c3ccccc3)CC2)CC1)c1ccccc1 (centres unmarked)
≥ 10 | O=C(Nc1ccccc1O)C1CCN(C(=O)c2ccc(COc3ccccc3)o2)CC1
≥ 10 | COc1ccc(NC(=O)c2ccc(COC(=O)c3ccc(C)c(O)c3)cc2)cc1
≥ 10 | COc1ccc(Cl)cc1-c1nnc(SCC(=O)c2cc(C)n(-c3ccc4c(c3)OCCO4)c2C)[nH]1
≥ 10 | Cc1cc(C(=O)COC(=O)c2ccc(O)cc2O)c(C)n1-c1ccc(OC(F)F)cc1
≥ 10 | O=c1oc2c(CN3CCN(CCO)CC3)c(O)ccc2cc1-c1nc2ccccc2s1
≥ 10 | COc1cc(C=C2CCn3c2nc2cc(C(=O)O)ccc2c3=O)ccc1OCc1ccc(Cl)cc1
≥ 10 | COc1cc(/C=C/C(=O)OCc2csc(Nc3ccc(C)cc3)n2)ccc1O
≥ 10 | COc1ccc(-c2nnc(SCC(=O)N3CCN(c4cccc(C(F)(F)F)c4)CC3)[nH]2)cc1
≥ 10 | CC(C)Oc1ccc(-c2nn(-c3ccccc3)cc2CNCCCN2CCC(O)CC2)cc1
≥ 10 | CCCc1cc(O)nc(SCC(=O)NC(c2ccccc2)c2ccc(OC)cc2)n1 (centres unmarked)
≥ 10 | CC(Oc1ccc(C(=O)NCc2cc([N+](=O)[O-])ccc2O)cn1)c1ccccc1 (centres unmarked)
≥ 10 | O=C(O)c1ccc(OCCOc2ccc(Oc3ccccc3)cc2)cc1
≥ 10 | COc1cc(C=C(Sc2nnc(-c3ccc(F)cc3)o2)C(=O)O)ccc1OC(F)F
≥ 10 | COc1cc(C(=O)/C=C/c2ccccc2OCc2ccccc2)ccc1SCC(=O)O
≥ 10 | Cc1nn(-c2ccccc2)c(Cl)c1/C=C/C(=O)c1ccc(OC(C)C(=O)O)cc1 (centres unmarked)

EC50 [µM] | Compound
≥ 10 | Cc1ccc(C(=O)Nc2cccc(CNCc3cccc(C(F)(F)F)c3)c2)cc1
≥ 10 | COc1ccc(CNC(=O)c2ccc(OCCC(C)C)cc2)cc1C(=O)O
≥ 10 | COc1cc(/C=C/C(=O)OC(C)C(=O)Nc2ccc(C(C)C)cc2)ccc1O (centres unmarked)
≥ 10 | COc1ccc(CCNC(=O)N2CCC(c3ccc(O)cc3)CC2)cc1OC
≥ 10 | O=C(COc1ccc(C(=O)/C=C/c2cccc(O)c2)cc1)Nc1ccccc1
≥ 10 | O=C(CCc1ccccc1O)NCc1ccc(Oc2cccnc2)c(F)c1
≥ 10 | Cc1cc(C(=O)CSc2n[nH]c(-c3ccccc3)n2)c(C)n1Cc1ccc2c(c1)OCO2
≥ 10 | Cc1cc(C(=O)COc2ccc(CC(=O)O)cc2)c(C)n1-c1ccc(F)c(Cl)c1
≥ 10 | COc1cc(/C=C/C(=O)OCC(=O)Nc2ccc(C(C)C)cc2)ccc1O
≥ 10 | CCc1ccc(-c2nnc(SCC(=O)c3cc(C)n(-c4cccc(C(F)(F)F)c4)c3C)[nH]2)cc1
≥ 10 | Cc1cccc2c(CN(Cc3ccc(-c4ccc(Cl)cc4)o3)Cc3cc(=O)oc4c(C)c(O)ccc34)cc(=O)oc12
≥ 10 | CCn1c(-c2ccc3c(c2)OCCO3)cnc1SCC(=O)c1ccc(O)cc1O
≥ 10 | CC(OC(=O)c1ccc(CO)cc1)C(=O)Nc1ccc(OCc2ccccc2)cc1 (centres unmarked)
≥ 10 | COc1cc(/C=C/C(=O)c2ccc(SCC(=O)O)c(OC)c2)ccc1OC(F)F
≥ 10 | CC(=NNC(=S)Nc1ccc(C)cc1C)c1ccc(OCCCC(=O)O)cc1
≥ 10 | Cc1cccc(OCC(=O)NCc2ccc(N3CCC(CO)CC3)cc2)c1
≥ 10 | O=C(O)C(=Cc1ccccc1OC(F)F)Sc1nnc(-c2ccc(F)cc2)o1
≥ 10 | COc1ccc(-c2cc(COc3cc4ccccc4cc3C(=O)O)on2)cc1
≥ 10 | CCCOc1ccc(OCC(=O)NCc2ccc(OC)c(C(=O)O)c2)cc1
≥ 10 | COc1ccc(C(=O)/C=C/c2ccc(C(C)(C)C)cc2)cc1CSCC(=O)O
≥ 10 | COc1ccc(CCC(=O)Nc2ccc(/C=C/C(=O)O)cc2)cc1OC

EC50 [µM] | Compound
≥ 10 | CCOc1cc(/C=C/c2cc(C(=O)O)c3ccccc3n2)ccc1OC(F)F
≥ 10 | COc1cc(C(=O)/C=C/c2cn(-c3ccccc3)nc2-c2cc3ccccc3o2)ccc1OCC(=O)O
≥ 10 | COc1ccc(C(=O)/C=C/c2ccc(-c3ccccc3)cc2)cc1CSCC(=O)O
≥ 10 | O=C(O)CCCOc1ccc(C(=O)/C=C/c2cnn(Cc3ccccc3Cl)c2)cc1
≥ 10 | COc1ccc(C(=O)/C=C/c2ccc(OC(F)F)c(OC)c2)cc1CSCC(=O)O
≥ 10 | O=C(O)COc1ccc(/C=C/C(=O)c2ccc(C3CCCCC3)cc2)cc1
≥ 10 | COc1cc(CN(C)C(=O)NCc2cccc(O)c2)ccc1OCc1ccccc1
≥ 10 | CC1CCN(c2ccc(NC(=O)CNC(c3ccc(F)cc3)c3cccs3)cc2)CC1 (centres unmarked)
≥ 10 | Cc1ccc2[nH]c(SCC(=O)c3cc(C)n(-c4ccc5c(c4)OCCO5)c3C)nc2c1
≥ 10 | COc1ccc(C2=NN(c3nc(-c4ccccc4)c(CC(=O)O)s3)C(c3ccco3)C2)cc1 (centres unmarked)
≥ 10 | CCCCCCCCCCCCCCCCNC(=O)CCC(=O)O
≥ 10 | COc1ccc(C(NCC(=O)Nc2ccc(N3CCCC3)cc2)c2ccccc2)cc1 (centres unmarked)
≥ 10 | Cc1nn(-c2ccccc2)c(Cl)c1/C=C/C(=O)c1ccc(OCCCC(=O)O)cc1
≥ 10 | COc1cc(C(=O)NCc2ccc(C(=O)O)cc2)cc(Cl)c1OCC(C)C
≥ 10 | O=C(NCc1ccc(COCC(F)(F)F)cc1)N1CCN(c2ccccc2O)CC1
≥ 10 | COc1cc(CNC2CCOc3ccccc32)ccc1OCC(=O)Nc1ccc(F)c(Cl)c1 (centres unmarked)
≥ 10 | O=C(O)COc1ccc(C=C2CN(Cc3ccccc3)Cc3c2nc2ccccc2c3C(=O)O)cc1
≥ 10 | COc1ccc(C(=O)/C=C/c2ccc(C(F)(F)F)cc2)cc1CSCC(=O)O
≥ 10 | O=C(O)c1ccc2c(=O)n3c(nc2c1)C(=Cc1ccc(OCc2ccccc2)cc1)CCCC3
≥ 10 | CCOc1cc(C=C(CCC(=O)O)c2nc3ccccc3s2)ccc1OCC(=O)N1CCOCC1
≥ 10 | COc1ccc(Oc2ccc(CNC(=O)c3cc4c(cc3O)OCO4)cn2)cc1
